From US12478616B2, “PI3K inhibitors and uses thereof” (Sloan-Kettering Institute for Cancer Research, priority 2018, dated 2025) come the findings set out here.

Amino acid sequences for entries named in this document (tags omitted).
UniProt P42336, whole entry: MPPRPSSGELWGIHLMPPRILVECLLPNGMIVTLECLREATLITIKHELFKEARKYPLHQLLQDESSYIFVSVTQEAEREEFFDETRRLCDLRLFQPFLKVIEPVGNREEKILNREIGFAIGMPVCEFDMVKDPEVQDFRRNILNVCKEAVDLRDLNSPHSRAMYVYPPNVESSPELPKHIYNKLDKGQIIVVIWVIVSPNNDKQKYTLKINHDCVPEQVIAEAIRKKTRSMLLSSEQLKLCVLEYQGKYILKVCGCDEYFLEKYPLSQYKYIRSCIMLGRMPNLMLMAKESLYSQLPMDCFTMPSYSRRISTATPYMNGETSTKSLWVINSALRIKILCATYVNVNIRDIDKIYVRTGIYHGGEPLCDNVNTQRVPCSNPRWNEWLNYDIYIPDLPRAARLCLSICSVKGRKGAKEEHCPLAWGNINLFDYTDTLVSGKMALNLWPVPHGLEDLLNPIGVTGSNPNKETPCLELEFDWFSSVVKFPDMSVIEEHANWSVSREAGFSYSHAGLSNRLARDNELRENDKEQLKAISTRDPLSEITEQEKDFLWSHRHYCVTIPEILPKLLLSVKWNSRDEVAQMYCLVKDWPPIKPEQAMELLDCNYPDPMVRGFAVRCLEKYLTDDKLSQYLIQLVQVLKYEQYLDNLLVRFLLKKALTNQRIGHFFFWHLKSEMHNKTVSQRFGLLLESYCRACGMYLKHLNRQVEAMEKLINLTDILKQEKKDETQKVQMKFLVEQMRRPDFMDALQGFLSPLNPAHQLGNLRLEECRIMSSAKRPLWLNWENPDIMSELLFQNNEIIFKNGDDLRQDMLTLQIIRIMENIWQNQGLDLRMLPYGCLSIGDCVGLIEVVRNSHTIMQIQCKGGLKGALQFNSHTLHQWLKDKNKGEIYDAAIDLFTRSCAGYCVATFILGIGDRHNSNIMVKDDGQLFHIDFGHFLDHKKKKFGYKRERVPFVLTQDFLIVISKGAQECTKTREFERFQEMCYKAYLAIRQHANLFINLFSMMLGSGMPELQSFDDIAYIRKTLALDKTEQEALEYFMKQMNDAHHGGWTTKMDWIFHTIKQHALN
UniProt P27986, whole entry partner: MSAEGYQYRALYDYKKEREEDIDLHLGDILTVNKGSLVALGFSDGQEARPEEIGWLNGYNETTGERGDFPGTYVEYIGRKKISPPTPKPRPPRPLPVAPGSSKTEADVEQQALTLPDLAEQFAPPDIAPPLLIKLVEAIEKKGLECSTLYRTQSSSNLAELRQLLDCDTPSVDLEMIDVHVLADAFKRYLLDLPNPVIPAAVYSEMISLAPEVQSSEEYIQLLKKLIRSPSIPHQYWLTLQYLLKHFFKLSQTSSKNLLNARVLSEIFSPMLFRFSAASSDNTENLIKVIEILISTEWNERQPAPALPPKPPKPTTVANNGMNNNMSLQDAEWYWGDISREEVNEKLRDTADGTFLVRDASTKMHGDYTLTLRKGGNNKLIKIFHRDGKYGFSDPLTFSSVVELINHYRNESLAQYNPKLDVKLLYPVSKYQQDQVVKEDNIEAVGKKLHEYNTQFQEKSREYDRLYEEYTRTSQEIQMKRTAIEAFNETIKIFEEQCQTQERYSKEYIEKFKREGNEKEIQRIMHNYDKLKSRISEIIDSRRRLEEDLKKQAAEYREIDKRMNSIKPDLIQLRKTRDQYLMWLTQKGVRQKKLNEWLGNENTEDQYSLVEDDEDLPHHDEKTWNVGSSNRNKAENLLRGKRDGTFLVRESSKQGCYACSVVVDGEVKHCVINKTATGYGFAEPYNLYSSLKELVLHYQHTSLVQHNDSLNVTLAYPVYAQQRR

Structures are written as SMILES.

Series [1] in a line: Stability in blood (human). The class given is in vitro ADME.
A short description of series [2]: Fucoidan nanoparticle formulation, drug load and particle size. To be noted: Table 8.
Series [3] is described as follows: Metabolic rate in microsome (human). The class given is in vitro ADME.
For a further series, the target named is PI3Kα (Homo sapiens (Human), UniProt P42336). In words: PI3Kα kinase (biochemical) assay. To be noted: for IC50: read-out: PI3Kα (IC50), Table 6, proline-modified inhibitors.
A short description of series [4]: Mouse pharmacokinetics, cassette dosed free drug.
A short description of the next series: PAMPA pH 7.4. The class given is in vitro ADME. As to conditions: for permeability (in words): text on Table 8. For orientation: PAMPA measures passive passage across an artificial lipid membrane.
The nature of series [5]: Metabolic rate in microsome (mouse). The class given is in vitro ADME. As to conditions: for lability / metabolic rate in microsomes (in words): mouse and human microsomes.
Series [6] is described as follows: Stability in blood (mouse). The class given is in vitro ADME.
Setting [7] is: Table 7, mouse, cassette, 0.1 mg/kg IV, 1 mL/kg (10-in-One).

A word on the IC50: it is the concentration that inhibits the measured activity by half. As to `Cc1nc(NC(=O)N2C[C@H](C(=O)OCc3oc(=O)oc3C)C[C@H]2C(N)=O)sc1-c1ccnc(C(C)(C)C(F)(F)F)c1`, the “Stability in blood (human) [% remaining @ 2 h]” value in series [1] is 0.4%. The “Nanoparticle drug load, %” value in series [2] turned out to be 34%. The “Metabolic rate in microsome (human)” value in series [3] worked out at 245 µL/min/mg. Also, the IC50 at PI3Kα is under 100 nM. Further, the “compound detected at Cmax (t=5 min), IV dosing arm” value in series [4] (mouse cassette PK, IV) is “no Compound (18) was detected”. The “compound detected following oral administration” value in series [4] (mouse cassette PK, oral) is “no Compound (18) was detected”. Also, in “PAMPA pH 7.4”, the “PAMPA pH 7.4” value is reported as 172 nm/sec and the “permeability (in words)” value is listed as “display permeability characteristics”. In addition, in series [5], the “lability / metabolic rate in microsomes (in words)” value (from here on “lability / metabolic rate”) is reported as “high metabolic rate” and the “Metabolic rate in microsome (mouse)” value was found to be 577 µL/min/mg. Further, the “Stability in blood (mouse) [% remaining @ 2 h]” value in series [6] came out at 1.0%.
With `Cc1nc(NC(=O)N2C[C@H](C(=O)O)C[C@H]2C(N)=O)sc1-c1ccnc(C(C)(C)C(F)(F)F)c1`, the “Stability in blood (human) [% remaining @ 2 h]” value in series [1] was 103%. Further, the “Nanoparticle drug load, %” value in series [2] was 41%. Besides, in series [3], the “Metabolic rate in microsome (human)” value turned out to be 7 µL/min/mg. Also, at PI3Kα, the “PI3Kα inhibition in biochemical assay (in words)” value is on record as “potent” and the IC50 is under 100 nM. In series [4] (setting [7]), the AUCiv worked out at 9.6 ng·h/mL, the C5min is listed as 55.7 ng/mL, the Cltotal amounted to 177.7 mL/min/kg and the MRTiv came to 11.4 min. The same compound returned a VDss in series [4] (setting [7]) of 2.057 L/kg. Moreover, in series [4] (mice, IV-dosed), the “half-life relative to BYL719 and Compound (14) (in words)” value is “shorter half-life”. Also, in series [4] (mouse, cassette dosing, free drug), the “total clearance (in words)” value is given as “much higher clearance”. For the same compound, in the series “PAMPA pH 7.4”, the “PAMPA pH 7.4” value is reported as under 6 nm/sec. Further, in series [5], the “lability / metabolic rate” value is listed as “very stable” and the “Metabolic rate in microsome (mouse)” value was -8 µL/min/mg. For the same compound, the “Stability in blood (mouse) [% remaining @ 2 h]” value in series [6] was determined as 104%.
In the case of `CCOC(=O)[C@@H]1C[C@@H](C(N)=O)N(C(=O)Nc2nc(C)c(-c3ccnc(C(C)(C)C(F)(F)F)c3)s2)C1`, the “Stability in blood (human) [% remaining @ 2 h]” value in series [1] was found to be 60%. The “Nanoparticle drug load, %” value in series [2] amounted to 39%. In addition, in series [3], the “Metabolic rate in microsome (human)” value is 18 µL/min/mg. Moreover, at PI3Kα, the IC50 was under 100 nM. For the same compound, in the series “PAMPA pH 7.4”, the “PAMPA pH 7.4” value is listed as 155 nm/sec and the “permeability (in words)” value is “display permeability characteristics”. Moreover, in series [5], the “lability / metabolic rate” value is given as “more labile in mouse microsomes than in human” and the “Metabolic rate in microsome (mouse)” value was found to be 104 µL/min/mg. Besides, the “Stability in blood (mouse) [% remaining @ 2 h]” value in series [6] is 0.076%.
